Test results: ChEMBL document CHEMBL5465560, “Selectivity Literature for EUbOPEN Chemogenomic Library” (2024)

By UniProt entry, the sequences of proteins in these tests, tags left out. Where a name states a change or a piece, a line headed by the entry shows the natural chain unless it says otherwise.
UniProt P49761: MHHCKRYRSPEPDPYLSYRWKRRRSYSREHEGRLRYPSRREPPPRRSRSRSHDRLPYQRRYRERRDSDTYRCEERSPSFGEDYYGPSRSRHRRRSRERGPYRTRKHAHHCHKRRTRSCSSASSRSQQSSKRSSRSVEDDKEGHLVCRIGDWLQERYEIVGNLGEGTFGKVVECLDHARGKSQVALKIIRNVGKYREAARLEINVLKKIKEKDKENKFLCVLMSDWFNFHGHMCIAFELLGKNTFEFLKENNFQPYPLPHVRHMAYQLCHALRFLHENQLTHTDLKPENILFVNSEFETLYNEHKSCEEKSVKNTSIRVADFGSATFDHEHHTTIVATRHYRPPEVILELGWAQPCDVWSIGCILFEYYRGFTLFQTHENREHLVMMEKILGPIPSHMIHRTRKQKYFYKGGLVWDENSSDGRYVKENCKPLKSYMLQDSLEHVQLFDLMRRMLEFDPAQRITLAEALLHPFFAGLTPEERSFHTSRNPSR
UniProt P48730: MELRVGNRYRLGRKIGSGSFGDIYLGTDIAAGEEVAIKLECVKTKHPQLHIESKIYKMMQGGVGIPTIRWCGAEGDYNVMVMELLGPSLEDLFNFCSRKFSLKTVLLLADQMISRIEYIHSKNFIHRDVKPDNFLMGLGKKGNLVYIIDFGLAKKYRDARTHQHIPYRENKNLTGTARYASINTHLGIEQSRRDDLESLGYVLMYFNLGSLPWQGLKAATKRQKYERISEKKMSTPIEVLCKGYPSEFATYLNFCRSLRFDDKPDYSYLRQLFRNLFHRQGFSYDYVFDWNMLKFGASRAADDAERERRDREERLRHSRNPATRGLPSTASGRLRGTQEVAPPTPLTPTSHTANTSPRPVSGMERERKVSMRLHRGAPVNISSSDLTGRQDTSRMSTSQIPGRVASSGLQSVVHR

Legend:
[1] = biological target: Dual specificity protein kinase CLK3 (Homo sapiens, UniProt P49761); experiment: Selectivity interaction (Eurofins binding assay) EUB0000008b CLK3
[2] = biological target: Casein kinase I isoform delta (Homo sapiens, UniProt P48730); experiment: Selectivity interaction (Enzymatic assay) EUB0001199aCl CSNK1D

Row | IC50 [1] | IC50 [2] | Structure (SMILES)
1 | > 3000 nM | – | Cn1cc(-c2ccc3occ(-c4cccc(-c5ccncc5)c4)c3n2)cn1
2 | – | 4 nM | CN1Cc2nccc(-c3cn(C)nc3-c3ccc(F)cc3)c2C1=O
